# Test results: PMC8484140 (Targeted Oncology, 2021)
# Assay: Plasma pharmacokinetics of entinostat
# Assay type: in vivo, human
smiles,measurement,setting,value
Nc1ccccc1NC(=O)c1ccc(CNC(=O)OCc2cccnc2)cc1 [Entinostat],CL/F,"Day 1, 3 mg oral, N=3*, mean ± SD",5.42 ± 1.26 L/h
same,CL/F,"Day 1, 5 mg oral, N=12, mean ± SD",5.08 ± 1.31 L/h
same,CL/F,"Day 1, 7 mg oral, N=3, mean ± SD",5.15 ± 0.76 L/h
same,CL/F,"Day 22, 3 mg/week oral, N=3*, mean ± SD",4.94 ± 0.36 L/h
same,CL/F,"Day 22, 5 mg/week oral, N=12, mean ± SD",4.00 ± 0.85 L/h
same,CL/F,"Day 22, 7 mg/week oral, N=3, mean ± SD",4.45 ± 1.14 L/h
